## Yeast mating assay 1: variants of the scFv Ab-14

Antigen: PDVDLGDISGINAS, a 14-residue peptide of the SARS-CoV-2 spike HR2 region.

The variants keep the light chain, the linker and the frameworks of Ab-14 (scFv order VH, three GGGGS repeats, VL).
VH: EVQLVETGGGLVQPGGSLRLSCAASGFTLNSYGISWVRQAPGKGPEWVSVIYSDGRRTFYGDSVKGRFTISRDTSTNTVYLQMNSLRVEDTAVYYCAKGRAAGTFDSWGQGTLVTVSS
VL: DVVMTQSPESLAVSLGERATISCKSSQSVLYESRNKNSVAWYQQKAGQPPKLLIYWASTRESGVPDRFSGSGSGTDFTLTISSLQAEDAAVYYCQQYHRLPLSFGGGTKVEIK

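The library (AAYL49) carries one to three amino acid substitutions per variant, with no insertions or deletions. Affinity was read by AlphaSeq, a pooled yeast mating assay with surface-displayed partners. After mating in shaken culture at 30 °C for 16 h, diploids were selected and their barcode pairs sequenced. A regression on co-assayed BCL2-family reference pairs converts the normalised counts of each replicate to an apparent Kd. There are three technical replicates.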

Changes read parent residue, position, new residue, counted from the first residue of the VH shown.
Affinities are written as log10 Kd with Kd in nM; a lower number is a better binder.
A mean of the replicates is given; it leaves out those without a signal.
An entry "n.d." has no value in the source: the pair was not observed among the diploids in that replicate. This suggests poor binding but is not conclusive.
In this assay the parent's reference entry averaged 0.65; its copy inside this library read 4.11 (one replicate of three).

changes | log10 Kd, replicates | log10 Kd (nM), mean | control signals
I34G D62Q F105I | n.d. / n.d. / n.d. | n.d. | 0 of 9
T28E R100D S107E | 0.50 / 0.73 / 0.50 | 0.58 | 3 of 9 (4.54)
G55I G61S V64E | n.d. / 4.29 / 4.49 | 4.39 | 3 of 9 (3.75)
R57V T58W Y60G | n.d. / n.d. / 4.22 | 4.22 | 7 of 9 (4.47)
F27N F59T | n.d. / n.d. / n.d. | n.d. | 0 of 9
N30W G33N D54C | n.d. / 5.34 / n.d. | 5.34 | 3 of 9 (3.42)
N30C D54T A101C | n.d. / n.d. / n.d. | n.d. | 0 of 9
T28G L29G T104L | n.d. / 3.31 / n.d. | 3.31 | 4 of 9 (4.23)
Y32A I51D D106K | n.d. / n.d. / 3.80 | 3.80 | 1 of 9 (4.67)
I34K R57M F59M | 3.86 / 4.77 / n.d. | 4.31 | 4 of 9 (4.56)
F27D T104I | n.d. / n.d. / n.d. | n.d. | 0 of 9
G26P I34D A102C | n.d. / n.d. / n.d. | n.d. | 2 of 9 (4.30)
S31E V50M A101Q | n.d. / 3.36 / n.d. | 3.36 | 2 of 9 (3.64)
I51T S63F G103I | n.d. / n.d. / n.d. | n.d. | 0 of 9
Y32E Y60V G103T | n.d. / n.d. / n.d. | n.d. | 3 of 9 (4.11)
Y32E G55H A102I | n.d. / n.d. / n.d. | n.d. | 1 of 9 (5.00)
G55I F105E D106P | 6.01 / 5.33 / 5.49 | 5.61 | 7 of 9 (4.74)
G26C Y52H S63Q | n.d. / n.d. / n.d. | n.d. | 3 of 9 (3.83)
R56E S63C A102N | 2.20 / 2.43 / 3.04 | 2.56 | 1 of 9 (4.06)
Y32T A101S | 2.56 / n.d. / n.d. | 2.56 | 1 of 9 (3.97)
S31F S35M V64I | 2.45 / 2.43 / 2.97 | 2.62 | 0 of 9
S31F G55I G99L | n.d. / n.d. / 3.73 | 3.73 | 0 of 9
S31T Y32H I34K | n.d. / 4.46 / n.d. | 4.46 | 5 of 9 (3.99)
G26P F27S D106F | 1.83 / 1.63 / 1.97 | 1.81 | 2 of 9 (3.98)
T58Y D62K A101D | n.d. / n.d. / n.d. | n.d. | 0 of 9
R100K A101S D106S | 0.52 / 0.80 / 0.50 | 0.61 | 0 of 9
S31G I51A S107H | n.d. / 5.02 / n.d. | 5.02 | 3 of 9 (3.44)
F27C I34A R56C | n.d. / 3.31 / n.d. | 3.31 | 2 of 9 (4.39)
T28R S63Y A102Q | n.d. / n.d. / n.d. | n.d. | 0 of 9
I34N R56Y V64H | n.d. / n.d. / n.d. | n.d. | 1 of 9 (3.08)
I51P D54I G61E | 4.10 / n.d. / n.d. | 4.10 | 1 of 9 (3.42)
S31H V50Y T104Q | n.d. / 4.07 / 3.68 | 3.87 | 2 of 9 (4.32)
G33R S53N F59M | n.d. / n.d. / n.d. | n.d. | 1 of 9 (4.12)
Y32W Y52F D54M | n.d. / n.d. / n.d. | n.d. | 1 of 9 (3.99)
G61S A101G A102R | n.d. / 3.62 / 4.61 | 4.12 | 3 of 9 (3.55)
F27A N30E Y32S | n.d. / n.d. / 4.61 | 4.61 | 1 of 9 (3.49)
Y32Q I34F R56Y | n.d. / n.d. / n.d. | n.d. | 0 of 9
G55N F59Q T104F | n.d. / n.d. / 5.04 | 5.04 | 2 of 9 (3.71)
N30C F59V | n.d. / 2.05 / n.d. | 2.05 | 0 of 9
I34C R56I G61F | n.d. / 3.90 / n.d. | 3.90 | 0 of 9
T28S L29I R100E | -0.08 / 0.27 / 0.08 | 0.09 | 6 of 9 (4.74)

Picked from the list: the 5 lowest averages where every replicate gave a value.

| changes | log10 Kd, replicates | log10 Kd (nM), mean | control signals |
|---|---|---|---|
| T28S L29I R100E | -0.08 / 0.27 / 0.08 | 0.09 | 6 of 9 (4.74) |
| T28E R100D S107E | 0.50 / 0.73 / 0.50 | 0.58 | 3 of 9 (4.54) |
| R100K A101S D106S | 0.52 / 0.80 / 0.50 | 0.61 | 0 of 9 |
| G26P F27S D106F | 1.83 / 1.63 / 1.97 | 1.81 | 2 of 9 (3.98) |
| R56E S63C A102N | 2.20 / 2.43 / 3.04 | 2.56 | 1 of 9 (4.06) |

Empty control strains, which show no peptide, gave a signal in 15% of pairings with library AAYL49; the median was 4.06 and 95% of these signals were weaker than 2.83. No background was subtracted. The control count says in how many pairings with the empty strains this scFv gave a signal, with their mean in brackets.

From the AlphaSeq antibody data of Engelhart et al. 2022 (doi:10.1038/s41597-022-01779-4), copy in the FLAb collection.